Protein sequences, listed by entry. Tags and fused reporters are not part of them.
UniProt P34913, whole entry: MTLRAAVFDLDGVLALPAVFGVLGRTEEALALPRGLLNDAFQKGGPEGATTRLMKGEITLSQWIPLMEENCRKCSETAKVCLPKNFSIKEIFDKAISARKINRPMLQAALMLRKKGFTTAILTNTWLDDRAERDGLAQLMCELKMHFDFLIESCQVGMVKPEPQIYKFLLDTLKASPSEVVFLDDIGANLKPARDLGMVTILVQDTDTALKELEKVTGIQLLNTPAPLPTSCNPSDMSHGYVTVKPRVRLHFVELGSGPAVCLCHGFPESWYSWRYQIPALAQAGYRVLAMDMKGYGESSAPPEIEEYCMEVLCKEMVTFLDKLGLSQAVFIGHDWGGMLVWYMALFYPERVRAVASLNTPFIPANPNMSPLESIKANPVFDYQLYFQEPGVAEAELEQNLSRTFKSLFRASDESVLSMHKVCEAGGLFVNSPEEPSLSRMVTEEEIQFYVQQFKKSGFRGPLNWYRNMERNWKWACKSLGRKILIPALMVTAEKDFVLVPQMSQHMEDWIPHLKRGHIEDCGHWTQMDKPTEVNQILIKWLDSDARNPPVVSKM

For this test, the target named is sEH (human recombinant) (Homo sapiens, UniProt P34913). The experiment in a line: sEH inhibition assay (fluorescence).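 Also: enzyme preincubated with compound 30 min at 25 °C, then substrate added and fluorescence read after 15 min at 25 °C, 320 nm and 460 nm, versus DMSO negative control.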 The conditions noted are these: read-out: Inhibitory activity (IC50) on sEH, 25° C.
For orientation: IC50 means the concentration that gives 50% inhibition. Consider `CCC1=C(C)CN(C(=O)NCCc2ccc(S(=O)(=O)NC(=O)N[C@H]3CC[C@H](C(=O)OC(C)C)CC3)cc2)C1=O`, for which the IC50 fell in the range of 200 to 1000 nM.

Consider `CCC1=C(C)CN(C(=O)NCCc2ccc(S(=O)(=O)N(C)C(=O)N[C@H]3CC[C@H](C(=O)OC(C)OC(=O)OC4CCCCC4)CC3)cc2)C1=O` (stereo partly drawn), for which the half-inhibitory concentration (IC50) fell in the range of 10000 to 100000 nM.

Turning to `CCC1=C(C)CN(C(=O)NCCc2ccc(S(=O)(=O)N(C)C(=O)N[C@H]3CC[C@H](COC(=O)CN(C)C)CC3)cc2)C1=O`, the 50% inhibitory concentration (IC50) is 200 to 1000 nM.

The values are drawn from patent US20250145564A1, “SULFONYLUREA COMPOUND, PREPARATION METHOD THEREFOR, AND APPLICATION THEREOF” (SHANGHAI INSTITUTE OF MATERIA MEDICA, CHINESE ACADEMY OF …, priority 2021, published 2025).
